The entries are a selection whose mix differs from that of the whole data set. Active and inactive are the calls of the source.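 Rule for the calls: active = mean luciferase reporter signal, scaled so untreated is 0 and the glycosylation-blocking control 100, at or above a set limit in every replicate; inconclusive = mean reaches the limit but not every replicate does; inactive = mean below the limit.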

A short description of this test: increase of ERlucT glycosylation luciferase signal, primary screen, N-linked glycosylation inhibitor project, D54 ERlucT cells, luminescence, set 2 (AID 588692).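 Note: luciferase carries N-glycosylation sites so blocking glycosylation raises the light; 0% = median of neutral control wells and 100% = median of 100 nM tunicamycin wells.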 Particulars: 24 h, at 12.5 µM, stronger effect = higher value, percent of 100 nM tunicamycin response.
As for `O=C(NCC1(N2CCCCC2)CCCCC1)c1ccc(OC(F)F)cc1`, the reporter increase is inactive: -7.72%. With `CC(C)(C)n1nnnc1C(c1ccccc1OC(F)(F)F)N1CCC(n2c(=O)[nH]c3ccccc32)CC1` (stereo unspecified) the figure was inactive: -3.29%; with `O=C(NCC1(N2CCCCC2)CCCCC1)c1cccc([N+](=O)[O-])c1`, inactive: -7.68%.

In the case of `CSc1ccc(C(=O)NCC2(N3CCOCC3)CCCCC2)cc1`, the reporter increase was inactive: -5.54%.

As for `N#CC1(Nc2ccccc2)CCN(CCc2ccccc2)CC1`, the reporter increase is inactive: 0.235%. The result for `O=c1[nH]c2ccccc2n1C1CCN(C(c2ccccc2OC(F)(F)F)c2nnnn2C2CCCC2)CC1` (stereo unspecified) reads inactive: -4.81%; that for `CCN1CCC(Nc2ccc(Cl)cc2)CC1`, inactive: 0.439%. With `O=C(NCC1(N2CCCCC2)CCCCC1)c1cccc(C(F)(F)F)c1` the figure was inactive: -5.09%; with `CCCCn1nnnc1C(c1cccc2ccccc12)N1CCC(n2c(=O)[nH]c3ccccc32)CC1` (stereo unspecified), inactive: -7.06%; with `COc1ccc(NC2CCN(C(=O)OC(C)(C)C)CC2)cc1`, inactive: 0.181%. Turning to `CC(C)c1ccc(C(=O)NCC2(N3CCOCC3)CCCCC2)cc1`, the reporter increase was inactive: -7.23%. With `CN1CCN(CCOC(=O)C(O)(c2ccccc2)c2ccccc2)CC1` the figure was inactive: 1.81%. The result for `O=C(NCC1(N2CCOCC2)CCCCC1)c1cc(=O)[nH]c2ccccc12` reads inactive: -1.08%. Turning to `COc1cc(C(=O)NCC2(N3CCCCC3)CCCCC2)ccc1OC(F)F`, the reporter increase is inactive: -7.34%. With `CN(C)c1cccc(C(=O)NCC2(N3CCCCC3)CCCCC2)c1` the figure was inactive: -6.63%; with `COc1ccc(CN(CCCl)CCCl)cc1Cl`, inactive: 1.61%. With `CCCCn1nnnc1C(c1ccccc1OC(F)(F)F)N1CCC(n2c(=O)[nH]c3ccccc32)CC1` (stereo unspecified) the figure was inactive: -2.07%; with `CC(C)c1ccc(NC2CCN(C(=O)OC(C)(C)C)CC2)cc1`, inactive: -3.99%. With `CCCCn1nnnc1C(c1ccnc2ccccc12)N1CCC(n2c(=O)[nH]c3ccccc32)CC1` (stereo unspecified), the reporter increase was inactive: -6.68%. The result for `CCC(c1nnnn1C(C)(C)C)N1CCC(n2c(=O)[nH]c3ccccc32)CC1` (stereo unspecified) reads inactive: 1.36%; that for `O=C(NCC1(N2CCOCC2)CCCCC1)c1cc(F)c(F)cc1Cl`, inactive: -1.2%; that for `COc1cc(OC)c(C(=O)NCC2(N(C)C)CCCCC2)cc1OC`, inactive: 0.722%. The result for `O=C(NCC1(N2CCCCC2)CCCCC1)c1cncc(Br)c1` reads inactive: -4.21%; that for `CN1CCC(Nc2cccc(F)c2)CC1`, inactive: 0.125%.

For `CCCOc1ccc(C(=O)NCC2(N(C)C)CCCCC2)cc1OC`, the reporter increase is inactive: -2.8%. As for `Cc1ccc(C(=O)NCC2(N(C)C)CCCCC2)o1`, the reporter increase is inactive: 0.0955%.

Values taken from PubChem BioAssay AID588692 (Broad Institute, 2011).
